Sequences of proteins named here, by UniProt entry; tags and fusion partners are left off.
UniProt P35365, whole entry: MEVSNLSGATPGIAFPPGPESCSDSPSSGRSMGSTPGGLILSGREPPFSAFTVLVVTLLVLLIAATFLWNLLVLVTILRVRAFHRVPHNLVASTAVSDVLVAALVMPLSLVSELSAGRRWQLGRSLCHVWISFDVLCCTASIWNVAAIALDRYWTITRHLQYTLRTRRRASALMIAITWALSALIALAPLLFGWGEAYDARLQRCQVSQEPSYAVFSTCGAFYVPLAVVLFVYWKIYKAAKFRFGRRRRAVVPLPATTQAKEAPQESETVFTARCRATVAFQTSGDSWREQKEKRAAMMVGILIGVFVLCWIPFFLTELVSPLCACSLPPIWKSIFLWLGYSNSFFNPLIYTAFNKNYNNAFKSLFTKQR

In BindingDB's records for doi:10.1073/pnas.90.8.3452 (The Scripps Research Institute, 1993):

Biological target: 5-hydroxytryptamine receptor 5B (Rattus norvegicus, UniProt P35365)

`COC(=O)[C@@H]1[C@H]2C[C@H]3c4[nH]c5ccccc5c4CCN3C[C@@H]2CC[C@@H]1O` [yohimbic acid methyl ester] gave a Ki of 1000 nM.
